From ChEMBL document CHEMBL1125059, “Hydroxamic acid inhibitors of 5-lipoxygenase: quantitative structure-activity relationships” (J Med Chem, 1990)

Assays:
[1] = biological target: T1, Polyunsaturated fatty acid 5-lipoxygenase (Rattus norvegicus, UniProt P12527); test: Logarithmic value of inhibitory concentration against 5-lipoxygenase in rat basophilic leukemia cells (RBL-1); format: cell-based; conditions: read-out: Log 1/IC50 (converted)
T1 sequence (P12527 whole entry): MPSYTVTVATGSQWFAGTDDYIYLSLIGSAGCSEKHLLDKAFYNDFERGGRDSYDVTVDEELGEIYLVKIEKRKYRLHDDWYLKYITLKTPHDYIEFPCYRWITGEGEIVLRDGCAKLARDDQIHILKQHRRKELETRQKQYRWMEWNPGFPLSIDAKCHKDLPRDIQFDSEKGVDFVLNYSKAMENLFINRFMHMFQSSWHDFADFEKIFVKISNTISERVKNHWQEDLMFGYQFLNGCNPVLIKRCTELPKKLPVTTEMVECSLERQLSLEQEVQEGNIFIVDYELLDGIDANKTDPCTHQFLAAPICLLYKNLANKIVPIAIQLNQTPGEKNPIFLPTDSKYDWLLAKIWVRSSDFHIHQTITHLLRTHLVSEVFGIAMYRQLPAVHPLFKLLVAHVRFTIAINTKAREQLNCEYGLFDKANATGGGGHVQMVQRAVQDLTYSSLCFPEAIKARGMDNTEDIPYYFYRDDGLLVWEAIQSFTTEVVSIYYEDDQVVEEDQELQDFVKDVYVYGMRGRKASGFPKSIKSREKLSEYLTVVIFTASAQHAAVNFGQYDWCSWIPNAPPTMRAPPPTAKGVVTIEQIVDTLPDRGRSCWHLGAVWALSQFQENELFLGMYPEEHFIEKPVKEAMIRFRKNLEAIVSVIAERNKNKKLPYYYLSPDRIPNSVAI
Procedure, shortened: (§1)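 Enzyme source: sonicated lysate of trypsin-harvested adherent RBL-1 cells (3.0 × 10^7 cells/mL in 10 mM BES, 10 mM PIPES, 1 mM EDTA, pH 6.8), 20000g 20-min supernatant. Compounds in DMSO preincubated with enzyme 20 min at 37 °C in buffer with 0.7 mM CaCl2, 100 mM NaCl. Radiolabelled 5-HETE counted after chromatography, corrected via [3H]5-HETE recovery.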

[2] = biological target: T1, Polyunsaturated fatty acid 5-lipoxygenase; test: In vitro inhibitory activity against 5-lipoxygenase in rat basophilic leukemia cells(RBL-1); format: cell-based; procedure, shortened: as §1

| Compound | IC50 [1] | IC50 [2] |
| --- | --- | --- |
| CN(O)C(=O)/C(=C/c1ccc2ccccc2c1)c1ccccc1 | 50.1 nM | 510 nM |
| CN(O)C(=O)/C(=C/c1ccc2ccccc2c1)c1ccc(Br)cc1 | 1820 nM | 1800 nM |
| CN(O)C(=O)/C=C/c1cc2ccccc2cc1[N+](=O)[O-] | 100 nM | 300 nM |
